We go through 100 compounds from PubChem BioAssay AID624466 (The Scripps Research Institute Molecular Screening Center, 2012).

Sequences of proteins named here, by UniProt entry; tags and fusion partners are left off. A change or cut given only in a name is not applied to a line headed by its entry.
UniProt Q96RJ0: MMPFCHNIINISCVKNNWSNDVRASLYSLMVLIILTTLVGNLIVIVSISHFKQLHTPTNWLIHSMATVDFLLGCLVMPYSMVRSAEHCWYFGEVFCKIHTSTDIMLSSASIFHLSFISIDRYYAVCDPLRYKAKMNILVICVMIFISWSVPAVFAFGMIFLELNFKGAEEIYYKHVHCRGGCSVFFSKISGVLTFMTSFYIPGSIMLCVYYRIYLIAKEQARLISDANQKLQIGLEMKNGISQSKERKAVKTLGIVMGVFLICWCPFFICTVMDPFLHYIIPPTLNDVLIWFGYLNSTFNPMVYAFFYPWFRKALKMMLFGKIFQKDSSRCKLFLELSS

The entries are a selection whose mix differs from that of the whole data set. Calls of active or inactive are those of the source.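 Rule for the calls: active = inhibition above a per-plate cutoff, the mean inhibition of test compounds on that plate plus 3 SD (cut at about 49% in these data); inactive = the rest.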

The assay deals with Trace amine-associated receptor 1 (Homo sapiens) (UniProt Q96RJ0). The experiment in a line: blockers of beta-PEA-driven TAAR1 calcium signal – Fluo-8 calcium fluorescence, CHO RD-HGA16 cells, primary screen (AID 624466).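 Note: 0% = DMSO plus EC80 beta-PEA response and 100% = DMSO alone without agonist.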 To be noted: CHO RD-HGA16 TAAR1, Fluo-8 calcium fluorescence, antagonist; at 3 µM; stronger effect = higher value.
The inhibition is the change of the read-out against control, counted positive when it falls. Regarding `CC(C)NC(=O)NP(=O)(Oc1ccccc1)Oc1ccccc1`, the inhibition was inactive: 11.8%.
For `O=C(OC1CN2CCC1CC2)c1cccc2[nH]cnc12` (stereo not given), the inhibition was inactive: -6.29%.
With `CCN(CC)C(=S)SC(NC=O)C(Cl)(Cl)Cl` (stereo not given) the figure was inactive: 2.55%; with `COC(=O)C1(C)COP(=O)(N2CCCCCC2)OC1` (stereo not given), inactive: 2.36%; with `CC(C)c1ccc(OP(=O)(Nc2ccccn2)Oc2ccccc2F)cc1` (stereo not given), inactive: 6.2%.
For `ClCCSc1nnc(-c2cccnc2)o1` the value was inactive: 2.29%; for `Cc1ccc2nc3c(c(C)c2c1)CC(C(Cl)Cl)S3` (stereo not given), inactive: -1.18%.
With `[N-]=[N+]=NC1CCCCC1NC(=O)c1cc([N+](=O)[O-])cc([N+](=O)[O-])c1` (stereo not given) the figure was inactive: -3.5%.
For the compound `Cc1ccc(OP(=O)(Nc2ccc([N+](=O)[O-])cn2)Oc2ccc(C)cc2)cc1`, the inhibition is inactive: -14%.
With `O=[N+]([O-])c1ccc(-c2cc([N+](=O)[O-])c(O)c([N+](=O)[O-])c2)cc1` the figure was inactive: -9.77%; with `COc1cc(C(=O)NCC2(N3CCOCC3)CCCCC2)ccc1OCC(C)C`, inactive: -10.3%; with `O=[As](O)(c1ccc(O)cc1)c1ccccc1O`, inactive: -25.1%.
Regarding `C[As](=O)(O)c1cccc(C(=O)O)c1`, the inhibition was inactive: -12.9%.
For `COc1ccc(N/C(=N/P(=O)(N2CCOCC2)N2CCOCC2)N2CCOCC2)cc1` the value was inactive: -30.7%; for `O=[N+]([O-])c1cc(Oc2ccc([N+](=O)[O-])cc2C(F)(F)F)cc([N+](=O)[O-])c1`, inactive: -17%.
For `COc1cc(I)ccc1[As](=O)(O)O` the value was inactive: -25.4%; for `COc1ccc2nc(NP(=O)(c3ccccc3)c3ccccc3)sc2c1`, inactive: 8.61%; for `O=P1(N(CCCl)CCCl)Nc2ccccc2N1`, inactive: -5.03%.
With `O=P1(N(CCCl)CCCl)OCCCN1CCCl` (stereo not given) the figure was inactive: 1.8%; with `Cc1cc(=O)[nH]c(N[N+](=O)[O-])n1`, inactive: 8.09%; with `O=C(OC1CN2CCC1CC2)C12CC3CC(CC(C3)C1)C2` (stereo not given), inactive: -19.6%.
Turning to `Cc1c2c(nc3ccccc13)SC(C(Cl)Cl)C2` (stereo not given), the inhibition is inactive: 6.49%.
With `CCC(C)N(CC(C)C)C(=S)SC(NC(C)=O)C(Cl)(Cl)Cl` (stereo not given) the figure was inactive: -14.6%.
Turning to `CCOC(=O)c1ccc(NC(=O)C(C)(CCl)SC)cc1` (stereo not given), the inhibition was inactive: -10.3%.
`O=C(OC1CN2CCC1CC2)c1cccc([N+](=O)[O-])c1` (stereo not given): the inhibition is inactive: 8.14%.
With `O=C(Nc1ccncc1[N+](=O)[O-])c1ccc([N+](=O)[O-])cc1[N+](=O)[O-]`, the inhibition is inactive: -4.97%.
Take `O=C(COc1ccccc1)OC1CN2CCC1CC2` (stereo not given): the inhibition was inactive: 13.2%.
With `O=C(O)C(=O)c1ccc(N(CCCl)CCCl)cc1` the figure was inactive: -0.94%; with `COC(=O)C1(C)COP(=O)(N2CCCC2)OC1` (stereo not given), inactive: -23%.
For `COP1(=S)c2c(C)nn(CCC#N)c2N=C(c2ccc(F)cc2)N1C` (stereo not given) the value was inactive: -10.9%.
With `O=[N+]([O-])c1ccc(Nc2ccc(Oc3ccc([N+](=O)[O-])cc3[N+](=O)[O-])cc2)c([N+](=O)[O-])c1` the figure was inactive: 0.66%; with `O=P(Nc1ccccn1)(c1cccc2ccccc12)c1cccc2ccccc12`, inactive: -0.39%; with `Cc1cc(SC(NC=O)C(Cl)(Cl)Cl)ncn1` (stereo not given), inactive: 6.93%.
As to `CCOC(=O)Nc1cccc([As](=O)(O)O)c1`, the inhibition was inactive: -5.94%.
With `Cc1cc(SC(NC(=O)c2ccccc2)C(Cl)(Cl)Cl)nc(C(C)C)n1` (stereo not given) the figure was inactive: -7.87%; with `CCCCOc1ccc(C(=O)NCC2(N3CCCCC3)CCCCC2)cc1OC`, inactive: -10.4%.
`COP(=O)(OC)N1CC1c1ccccc1` (stereo not given): the inhibition is inactive: -11.6%.
For `CC1CCNP(=O)(N(CCCl)CCCl)O1` (stereo not given) the value was inactive: -19.4%; for `CCOC(=O)Nc1ccc([As](=O)(O)O)c(O)c1`, inactive: 8.01%.
For `O=C(O)C(O)c1ccc(N(CCCl)CCCl)cc1` (stereo not given) the value was inactive: -1%; for `O=[As](O)(c1cccs1)c1cccs1`, inactive: -4.52%.
Take `Cc1ccc(OCC(=O)OC2CN3CCC2CC3)cc1` (stereo not given): the inhibition is inactive: -8.62%.
With `O=P1(Nc2ccc(Br)cn2)COc2ccccc2OC1` the figure was inactive: 7.06%; with `NS(=O)(=O)c1cccc(NC(=O)COC(=O)C(O)(c2ccccc2)c2ccccc2)c1`, inactive: 8.03%; with `Nc1cccc([As](=O)(O)c2ccccc2)c1`, inactive: -6.68%.
For `O=P1(Nc2ncccn2)COc2ccccc2OC1` the value was inactive: 0.15%; for `Cc1ccc(S(=O)(=O)N(CCCN)CCCc2c(C)nc(N)[nH]c2=O)cc1`, inactive: -1.43%; for `CCCC1OP(=O)(Nc2ccccc2)OCC1CC` (stereo not given), inactive: -9.64%.
`O=C(/C=C/c1ccccc1)OC1CN2CCC1CC2` (stereo not given): the inhibition was inactive: -11.3%.
For `CN(C)C1(CNC(=O)c2ccc(S(C)(=O)=O)cc2)CCCCC1` the value was inactive: -25.8%; for `CC1CCC(C(C)C)C(OP(=O)(Nc2ccccn2)c2ccccc2)C1` (stereo not given), inactive: 10.8%; for `Cc1ccc(C(=O)OC2CN3CCC2CC3)cc1` (stereo not given), inactive: 10.4%.
For the compound `Cc1nn(-c2ccccc2)c2c1P(=O)(N1CCOCC1)N(C)C(c1ccccc1)=N2` (stereo not given), the inhibition was inactive: 2.01%.
As for `CC1(CBr)Cn2c(nc3ccccc3c2=O)S1` (stereo not given), the inhibition was inactive: -3.5%.
On to `CN(C(=O)Cc1ccc(Cl)c(Cl)c1)C1CCCC[C@@H]1N1CCCC1` (stereo not given in full), for which the inhibition is inactive: -16.2%.
As for `CC(C)/C=N\N=C(\N)N[N+](=O)[O-]`, the inhibition was inactive: 17.4%.
For `CN(C(=O)Cc1ccc(Cl)c(Cl)c1)[C@@H]1CCCC[C@H]1N1CCCC1` the value was inactive: -12.8%; for `COc1ccccc1CNC(=O)COC(=O)C(O)(c1ccccc1)c1ccccc1`, inactive: -5.79%; for `CC(C)(C)C(=O)NC(Sc1ncccn1)C(Cl)(Cl)Cl` (stereo not given), inactive: -34.1%.
For `O=P1(N(CCCl)CCCl)NCCC(C(F)(F)F)O1` (stereo not given), the inhibition was inactive: -4.64%.
With `Clc1n[nH]nc1-c1nn[nH][15n]1` the figure was inactive: 7.72%; with `CCOP(=O)(Nc1ccc(C)cn1)OCC`, inactive: 7.6%.
For `CN(CCCl)Cc1cc(Cl)c(NC2=NCCN2)c(Cl)c1` the value was inactive: -7.02%.
For `CCOP(=O)(NC(=NC(C)c1ccccc1)NC(C)c1ccccc1)OCC` (stereo not given) the value was inactive: -0.73%; for `O=P1(Nc2ccccn2)COc2ccccc2OC1`, inactive: -13.4%; for `CCC1=CC2Cc3nc4ccc(Cl)cc4c(N)c3C(C1)C2` (stereo not given), inactive: 6.12%.
As for `CCOP(=O)(Nc1cccc2ccccc12)OCC`, the inhibition was inactive: -0.75%.
With `COc1cc(C2NCCC3(OCCO3)C2(C)C)cc(OC)c1OC` (stereo not given) the figure was inactive: -7.17%; with `CCCOP(=S)(Nc1nc(N)cc(=O)[nH]1)OCCC`, inactive: -12.2%; with `Nc1cccc2c([As](=O)(O)O)cccc12`, inactive: -12.8%.
`Cc1ccc(NCCc2c([N+](=O)[O-])cc([N+](=O)[O-])cc2[N+](=O)[O-])cc1`: the inhibition is inactive: 14.5%.
For `Cc1cccc(OCC(=O)OC2CN3CCC2CC3)c1` (stereo not given) the value was inactive: -11%; for `O=[As](O)(c1cccc(O)c1)c1cccc(O)c1`, inactive: -19.1%; for `CS(=O)(=O)c1ccc(Cl)c(NC(=O)COC(=O)C(O)(c2ccccc2)c2ccccc2)c1`, inactive: 44.9%.
Consider `O=[As](O)(O)c1cccnc1`, for which the inhibition was inactive: -5.31%.
With `COc1cc(C(=O)NCC2(N3CCOCC3)CCCCC2)cc(Cl)c1OC(C)C` the figure was inactive: -1.29%.
With `O=C(OC1CN2CCC1CC2)c1ccc(Cl)cc1` (stereo not given) the figure was inactive: -20.7%; with `CN(C(=O)Cc1ccc(Cl)c(Cl)c1)[C@H]1CC[C@@]2(CCCO2)C[C@@H]1N1CCCC1`, inactive: -11.2%.
Take `O=[N+]([O-])c1ccc2c(c1)nnn2O`: the inhibition was inactive: 7.85%.
For `CN(C)C(=O)c1cc([N+](=O)[O-])cc2c1-c1c(cc([N+](=O)[O-])cc1[N+](=O)[O-])C2=O` the value was inactive: 25.8%.
With `CN(C(=O)Cc1ccccc1)[C@@H]1CC[C@]2(CCCO2)C[C@H]1N1CCCC1`, the inhibition was inactive: -15.1%.
For the compound `CCOP1(=S)c2c(C)nn(CCC#N)c2N=C(c2ccc(F)cc2)N1C` (stereo not given), the inhibition is inactive: 5.67%.
With `N#CCCN(C(=O)COC(=O)C(O)(c1ccccc1)c1ccccc1)c1ccc(F)cc1` the figure was inactive: 8.49%; with `NC(=O)Nc1ccc([As](=O)(O)O)cc1`, inactive: 1.92%; with `Nc1ccccc1[As](=O)(O)c1ccccc1`, inactive: -22.5%.
For `O=C(O)COc1ccc([As](=O)(O)O)cc1[N+](=O)[O-]` the value was inactive: -13.7%.
In the case of `O=P(Nc1nccs1)(Oc1ccccc1)Oc1ccccc1`, the inhibition was inactive: -6.75%.
Take `CCOP1(=S)c2c(C)nn(CCC#N)c2N=C(c2ccccc2F)N1C` (stereo not given): the inhibition was inactive: 18.4%.
With `O=c1c2cc([N+](=O)[O-])ccc2[nH]c2c([N+](=O)[O-])cc([N+](=O)[O-])cc12` the figure was inactive: 2.71%; with `CN(C)C(=O)Oc1noc2ccccc12`, inactive: -12.9%; with `CC(NC(=O)COC(=O)C(O)(c1ccccc1)c1ccccc1)c1ccccc1` (stereo not given), inactive: 17.6%.
With `Cc1ccccc1OP(=O)(Nc1ccccn1)Oc1ccccc1C` the figure was active: 70.3%; with `Cc1ccc(OP(=O)(Nc2ccccn2)Oc2ccc(C)cc2)cc1`, inactive: 27.5%; with `CC(=O)NC(SC(=S)N(CC(C)C)CC(C)C)C(Cl)(Cl)Cl` (stereo not given), inactive: -19.4%.
On to `COC(=O)c1cc2c(s1)N=C(c1ccccc1)N(C)P2(=O)N1CCOCC1` (stereo not given), for which the inhibition is inactive: -2.29%.
With `CCC(=O)N1C2C3N(C(=O)CC)C1C1N(C(=O)CC)C(C(N1C(=O)CC)N3C(=O)CC)N2C(=O)CC` the figure was inactive: 10.6%.
Turning to `O=C(OC1CN2CCC1CC2)c1ccccc1` (stereo not given), the inhibition was inactive: -6.97%.
With `O=P1(N(CCCl)CCCl)OCCC2CCCCN21` (stereo not given) the figure was inactive: -17.6%; with `CCNC(=S)/N=C(\N)N[N+](=O)[O-]`, inactive: 26%.
With `O=C(NC1CCS(=O)(=O)C1)NP(=S)(Oc1ccccc1)Oc1ccccc1` (stereo not given) the figure was inactive: -11.3%.
